# Values of other authors in EP4687750B1, “ORAL CARE KIT COMPRISING A LIGHT EMITTING DEVICE AND AN ORAL COMPOSITION” (dated 2026).
# Conditions: heating curcumin in water to boiling for 10 minutes; cited from earlier work
smiles,measurement,value
COc1cc(/C=C/C(=O)CC(=O)/C=C/c2ccc(O)c(OC)c2)ccc1O,increase of solubility,12 -fold
